Apparent affinities of Ab-14 variants for a coronavirus HR2 peptide

Target peptide (SARS-CoV-2 spike, HR2 region): PDVDLGDISGINAS

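Phage display of a naive human antibody library on the peptide gave the parent. Variants in AAYL49 differ from the parent at up to three CDR positions; double and triple changes were sampled at random. The assay is AlphaSeq: two haploid yeast populations carry antibody and antigen on their surface. Pairs that bind mate more often; barcode pairs of the diploids are counted by sequencing. The ratio of observed to expected reads was calibrated, replicate by replicate, on BCL2-family standards whose Kd was known from biolayer interferometry. There are three technical replicates.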

The variants keep the light chain, the linker and the frameworks of Ab-14 (scFv order VH, the linker GGGGSGGGGSGGGGS, VL).
VH: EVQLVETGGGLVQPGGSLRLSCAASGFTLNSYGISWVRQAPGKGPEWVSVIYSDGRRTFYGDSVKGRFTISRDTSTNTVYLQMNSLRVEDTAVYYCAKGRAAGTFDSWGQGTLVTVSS
VL: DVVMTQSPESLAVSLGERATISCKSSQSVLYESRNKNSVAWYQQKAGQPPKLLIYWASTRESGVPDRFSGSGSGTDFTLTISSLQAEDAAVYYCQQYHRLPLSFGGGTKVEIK

Positions count from residue 1 of the parent VH; I34C puts C in place of I. The read-out is the apparent dissociation constant on a log10 scale (nM): the lower, the stronger. Replicates are averaged; those with no signal do not enter the mean. "nd" marks a missing value. The strain was present, yet no cells mated with the target were sequenced in that replicate, which points to weak or no binding. For reference, the parent read 0.65 as the reference entry and 4.11 (one replicate of three) as a member of this library. Three control strains display no target. For library AAYL49, 15% of the pairings with them gave a signal, with a median of 4.06 and one signal in twenty below 2.83, so weak values seen in few replicates may be background. For each scFv, signals with the empty controls are counted beside the result, with their mean in brackets.

| changes | log10 Kd (nM) by replicate | mean log10 Kd (nM) | signal with controls |
|---|---|---|---|
| I34C/G103A | nd nd nd | nd | 0 of 9 |
| G26H/L29R/G99D | 4.89 3.87 nd | 4.38 | 4 of 9 (4.60) |
| N30D/G33W/G61K | nd nd nd | nd | 1 of 9 (3.59) |
| A102G/G103Q/T104G | 1.91 1.76 1.68 | 1.79 | 3 of 9 (3.91) |
| G26L/R57E/D106I | nd nd nd | nd | 0 of 9 |
| G33D/V50W/F59H | nd 4.27 nd | 4.27 | 2 of 9 (3.37) |
| L29T/D62R/R100N | 3.36 3.61 nd | 3.48 | 2 of 9 (3.03) |
| K65E/A102C/F105H | nd nd nd | nd | 1 of 9 (3.24) |
| N30R/I51M/S63R | 2.88 3.31 2.75 | 2.98 | 0 of 9 |
| V50M/R56P/F59D | 3.21 4.15 4.87 | 4.08 | 4 of 9 (3.67) |
| G26H/V50G/T104Q | nd nd nd | nd | 1 of 9 (2.34) |
| V50M/G103M/D106L | nd nd nd | nd | 0 of 9 |
| L29K/Y60N/A102F | nd 2.69 4.44 | 3.56 | 2 of 9 (4.39) |
| G103L/D106K | 5.58 nd nd | 5.58 | 0 of 9 |
| F27T/S63I/A102F | nd nd nd | nd | 1 of 9 (4.39) |
| S35K/R56N/G61T | 1.92 2.23 2.53 | 2.23 | 4 of 9 (4.27) |
| S31G/A102C/T104R | 0.65 1.23 nd | 0.94 | 1 of 9 (2.64) |
| S53C | nd nd nd | nd | 1 of 9 (4.11) |
| I51M/F59T/A101E | 1.91 2.03 3.01 | 2.32 | 0 of 9 |
| R56V/T58S/S63C | 3.14 2.86 2.74 | 2.92 | 3 of 9 (4.61) |
| L29H/T58C | nd 3.73 4.59 | 4.16 | 5 of 9 (4.65) |
| T28S/R56C/S107D | 0.98 0.93 1.20 | 1.04 | 0 of 9 |
| G26E/V50S/S53D | 4.55 3.65 nd | 4.10 | 1 of 9 (3.52) |
| L29N/N30L/V64S | nd 5.47 5.03 | 5.25 | 3 of 9 (3.99) |
| L29K/G55T/G103F | nd nd nd | nd | 1 of 9 (2.86) |
| F27S/A101N/G103Q | 3.03 2.77 3.69 | 3.16 | 3 of 9 (4.25) |
| V50Q/A101F/S107L | nd nd nd | nd | 1 of 9 (4.31) |
| G26R/K65T/G103Q | nd nd nd | nd | 0 of 9 |
| S31A/D62Q/S63N | 1.65 1.30 1.68 | 1.54 | 0 of 9 |
| Y32R/R57C | nd nd nd | nd | 0 of 9 |
| R57C/Y60Q/R100Y | nd nd nd | nd | 0 of 9 |
| L29G/I34W/R56Q | 4.51 nd 3.57 | 4.04 | 7 of 9 (4.84) |
| T28A/S35D/T58I | nd nd nd | nd | 0 of 9 |
| V50Q/R56W/T104Y | nd nd nd | nd | 0 of 9 |
| V64I/A101W/F105K | nd nd nd | nd | 2 of 9 (3.73) |
| G26N/G61K/R100C | nd 3.84 3.50 | 3.67 | 1 of 9 (4.96) |
| S35N/F59H/V64Q | nd nd nd | nd | 0 of 9 |
| G33H/Y52R/G55R | nd nd nd | nd | 0 of 9 |
| G26K/G33T/G61K | nd nd nd | nd | 1 of 9 (2.38) |
| F27P/R57Q | 4.58 nd 3.69 | 4.13 | 2 of 9 (3.95) |
| F27W/Y52A/R57Q | 3.70 nd 4.14 | 3.92 | 2 of 9 (5.08) |
| N30V/R100A | nd nd nd | nd | 0 of 9 |

The last 6 entries again:

{"changes": "S35N/F59H/V64Q", "log10 Kd (nM) by replicate": "nd nd nd", "mean log10 Kd (nM)": "nd", "signal with controls": "0 of 9"}
{"changes": "G33H/Y52R/G55R", "log10 Kd (nM) by replicate": "nd nd nd", "mean log10 Kd (nM)": "nd", "signal with controls": "0 of 9"}
{"changes": "G26K/G33T/G61K", "log10 Kd (nM) by replicate": "nd nd nd", "mean log10 Kd (nM)": "nd", "signal with controls": "1 of 9 (2.38)"}
{"changes": "F27P/R57Q", "log10 Kd (nM) by replicate": "4.58 nd 3.69", "mean log10 Kd (nM)": "4.13", "signal with controls": "2 of 9 (3.95)"}
{"changes": "F27W/Y52A/R57Q", "log10 Kd (nM) by replicate": "3.70 nd 4.14", "mean log10 Kd (nM)": "3.92", "signal with controls": "2 of 9 (5.08)"}
{"changes": "N30V/R100A", "log10 Kd (nM) by replicate": "nd nd nd", "mean log10 Kd (nM)": "nd", "signal with controls": "0 of 9"}

The measurements come from Engelhart et al. 2022 (doi:10.1038/s41597-022-01779-4) through the FLAb antibody collection.